Data taken from paper PMC11109483 (Life Science Alliance, 2024).

Molecular target: T1, mono-Ub (human, UniProt P0CG48 1-76, Maleimide-PEG2-Biotin on the cysteine of the C-terminal linker)
T1 construct: ubiquitin (hUb), human; construct Ub-cys-6H in pETM60; Bait of the pulldowns; The same name is used for the SPR analyte; also called Ub-cys-6H; 6xHis-cys-Ub; source: E. coli BL21 Rosetta, purified (TALON, SEC); biotin conjugated by maleimide-cysteine reaction
Assay: SPR; Biacore T200, 25°C; biotinylated HIP1(22-309) immobilised on Sensor Chip NA (900 RU); Ub chains as analytes 60 nM to 250 uM, multicycle; 50 mM Hepes pH 7.5, 300 mM NaCl, 0.5 mM TCEP, 0.05% Tween-20, 1% BSA; steady-state affinity model
Conditions: both partners purified

B1: biotinylated HIP1 (22-309) (domain or fragment, UniProt O00291 22-309, looked up)
chain: RGVGAGLEAAERESFERTQTVSINKAINTQEVAVKEKHARTCILGTHHEKGAQTFWSVVNRLPLSSNAVLCWKFCHVFHKLLRDGHPNVLKDSLRYRNELSDMSRMWGHLSEGYGQLCSIYLKLLRTKMEYHTKNPRFPGNLQMSDRQLDEAGESDVNNFFQLTVEMFDYLECELNLFQTVFNSLDMSRSVSVTAAGQCRLAPLIQVILDCSHLYDYTVKLLFKLHSCLPADTLQGHRDRFMEQFTKLKDLFYRSSNLQYFKRLIQIPQLPENPPNFLRASALSEHIS
modifications: biotin on the Avi-tag (BirA)
notes: Vector pET-15b-His10-TEV-Avi-tag; source: E. coli BL21(DE3), purified (IMAC, TEV digestion, reverse IMAC, SEC), biotinylated in vitro with BirA
- Kd: 197 µM
